# “And” between values parts separate entries of the source, which are not always exact repeats. Identical values can stand only once. Like-named read-outs stand apart in the source and are kept apart here.
molecule,measurement,setting,value
CC(=O)O[C@@H]1C[C@H]2C(C)(C)C(=O)C=C[C@]2(C)[C@H]2CC[C@@]3(C)[C@H](c4ccoc4)OC(=O)[C@H]4O[C@]43[C@@]21C [Gedunin],Cell viability (%),Vero cells; 1.25 μM,101.81%
CO[C@@H]1[C@@H](O[C@@H]2O[C@H](C)[C@@H](O[C@H]3C[C@@](C)(O)[C@@H](OC(=O)CC(C)C)[C@H](C)O3)[C@H](N(C)C)[C@H]2O)[C@@H](CC=O)C[C@@H](C)[C@@H](O)/C=C/C=C/C[C@@H](C)OC(=O)C[C@H]1OC(C)=O [Josamycin],Huh7 cell viability (%),"Huh7 cells; human, 3.33 µM",96.23%
same,Huh7 cell viability (%),"Huh7 cells; human, 10 µM",98.66%
O=C1NCN(c2ccccc2)C12CCN(CCCC(c1ccc(F)cc1)c1ccc(F)cc1)CC2 [Fluspirilene],Huh7 cell viability (%),"Huh7 cells; human, 0.37 µM",95.78%
CC(C)(C)c1cc(C=C(C#N)C#N)cc(C(C)(C)C)c1O [Tyrphos-tin A9],Cell viability (%),Vero cells; 5 μM,101.86%
O[C@H]1[C@H]2c3cc4c(cc3CN3CCC(=C[C@@H]1O)[C@H]23)OCO4 [Lyco-rine],Cell viability (%),Vero cells; 0.625 μM,98.84%
Penitrem A,Cell viability (%),Vero cells; 0.625 μM,87.82% and 86.81% and 85.55%
same,Cell viability (%),Vero cells; 1.25 μM,93.58% and 92.84% and 89.98%
same,Cell viability (%),Vero cells; 5 μM,92.66% and 91.70% and 87.43%
same,Cell viability (%),Vero cells; 20 μM,101.66% and 99.49% and 98.85%
same,CC50,Vero cells; African green monkey,> 20 µM
CC(C)(C)c1cc(/C=C(\C#N)C(N)=S)cc(C(C)(C)C)c1O [Tyrphos-tin AG 879],U-87 MG cell viability (%),"U-87 MG cells; human, 0.25 µM",94.64%
CC(C)(C)c1cc(/C=C(\C#N)C(N)=S)cc(C(C)(C)C)c1O [Tyrphostin AG 879],Huh7 cell viability (%),"Huh7 cells; human, 10 µM",95.79%
CC(C)(C)c1cc(C=C(C#N)C#N)cc(C(C)(C)C)c1O [Tyrphostin A9],U-87 MG cell viability (%),"U-87 MG cells; human, 0.25 µM",94.64%
OC[C@H]1O[C@H]([S-])[C@H](O)[C@@H](O)[C@@H]1O.[Au+] [Aurothio-glucose],Huh7 cell viability (%),Huh7 cells; 3.33 µM,101.98%
same,U-87 MG cell viability (%),U-87 MG cells; 0.37 µM,96.62%

# Source: PMC10541190 (The Journal of Clinical Investigation, 2023)
